# Membrane permeability of cyclic peptides

Values of Kelly et al. 2021, doi:10.1021/jacs.0c06115, as listed in CycPeptMPDB.

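The data file gives no further conditions (lipid, pH, time, direction or concentration), and values from different papers need not be comparable. Other peptides of the study may be missing here. Peptides that the database sets to -10, its floor, are left out.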

PAMPA measures passive passage through an artificial lipid membrane.
MDCK values are permeabilities across Madin-Darby canine kidney cell monolayers.
P is given in units of 10^-6 cm/s (from log10 values with two decimals); larger means faster passage.
Cells with "n/a" have no entry in this list.

compound	PAMPA (10^-6 cm/s)	MDCK (10^-6 cm/s)
CC(=O)N1CCC[C@H]1C(=O)N[C@@H]1C(=O)N[C@H](CC(C)C)C(=O)N[C@H](CC(C)C)C(=O)N(C)[C@@H](CC(C)C)C(=O)N(C)[C@H](CC(C)C)C(=O)N(C)[C@H](C)C(=O)N[C@@H](CC(C)C)C(=O)N2CCC[C@@H]2C(=O)O[C@@H]1C	2.5	n/a
CC(=O)N1CCC[C@H]1C(=O)N(C)[C@@H](CC(C)C)C(=O)N[C@@H]1C(=O)N(C)[C@@H](CC(C)C)C(=O)N(C)[C@@H](CC(C)C)C(=O)N(C)[C@H](CC(C)C)C(=O)N(C)[C@H](C)C(=O)N[C@H](CC(C)C)C(=O)N2CCC[C@H]2C(=O)O[C@@H]1C	0.89	n/a
CC(=O)N1CCC[C@@H]1C(=O)N(C)[C@@H](CC(C)C)C(=O)N[C@@H]1C(=O)N(C)[C@H](CC(C)C)C(=O)N[C@H](CC(C)C)C(=O)N[C@@H](CC(C)C)C(=O)N[C@@H](C)C(=O)N[C@@H](CC(C)C)C(=O)N2CCC[C@@H]2C(=O)O[C@@H]1C	0.13	n/a
CC(=O)N1CCC[C@H]1C(=O)N(C)[C@H](CC(C)C)C(=O)N[C@@H]1C(=O)N[C@@H](CC(C)C)C(=O)N(C)[C@H](CC(C)C)C(=O)N(C)[C@@H](CC(C)C)C(=O)N(C)[C@@H](C)C(=O)N[C@@H](CC(C)C)C(=O)N2CCC[C@H]2C(=O)O[C@@H]1C	4	n/a
CC(=O)N1CCC[C@@H]1C(=O)N(C)[C@H](CC(C)C)C(=O)N[C@@H]1C(=O)N[C@@H](CC(C)C)C(=O)N(C)[C@H](CC(C)C)C(=O)N(C)[C@H](CC(C)C)C(=O)N[C@@H](C)C(=O)N[C@H](CC(C)C)C(=O)N2CCC[C@@H]2C(=O)O[C@@H]1C	0.33	n/a
CC(=O)N1CCC[C@H]1C(=O)N(C)[C@@H](CC(C)C)C(=O)N[C@@H]1C(=O)N(C)[C@H](CC(C)C)C(=O)N[C@H](CC(C)C)C(=O)N[C@@H](CC(C)C)C(=O)N(C)[C@H](C)C(=O)N[C@@H](CC(C)C)C(=O)N2CCC[C@H]2C(=O)O[C@@H]1C	0.79	n/a
CC(=O)N1CCC[C@H]1C(=O)N(C)[C@@H](CC(C)C)C(=O)N[C@@H]1C(=O)N(C)[C@@H](CC(C)C)C(=O)N[C@@H](CC(C)C)C(=O)N(C)[C@@H](CC(C)C)C(=O)N[C@@H](C)C(=O)N[C@H](CC(C)C)C(=O)N2CCC[C@@H]2C(=O)O[C@@H]1C	0.11	0.5
CC(=O)N1CCC[C@H]1C(=O)N(C)[C@@H](CC(C)C)C(=O)N[C@@H]1C(=O)N(C)[C@@H](CC(C)C)C(=O)N[C@@H](CC(C)C)C(=O)N(C)[C@@H](CC(C)C)C(=O)N(C)[C@H](C)C(=O)N[C@@H](CC(C)C)C(=O)N2CCC[C@H]2C(=O)O[C@@H]1C	4.9	n/a
CC(=O)N1CCC[C@@H]1C(=O)N(C)[C@@H](CC(C)C)C(=O)N[C@@H]1C(=O)N[C@H](CC(C)C)C(=O)N(C)[C@H](CC(C)C)C(=O)N(C)[C@H](CC(C)C)C(=O)N[C@H](C)C(=O)N[C@@H](CC(C)C)C(=O)N2CCC[C@@H]2C(=O)O[C@@H]1C	2.8	n/a
CC(=O)N1CCC[C@H]1C(=O)N(C)[C@@H](CC(C)C)C(=O)N[C@@H]1C(=O)N(C)[C@H](CC(C)C)C(=O)N(C)[C@H](CC(C)C)C(=O)N(C)[C@@H](CC(C)C)C(=O)N(C)[C@H](C)C(=O)N[C@H](CC(C)C)C(=O)N2CCC[C@H]2C(=O)O[C@@H]1C	7.9	n/a
CC(=O)N1CCC[C@@H]1C(=O)N(C)[C@@H](CC(C)C)C(=O)N[C@@H]1C(=O)N(C)[C@@H](CC(C)C)C(=O)N(C)[C@H](CC(C)C)C(=O)N(C)[C@@H](CC(C)C)C(=O)N(C)[C@@H](C)C(=O)N[C@@H](CC(C)C)C(=O)N2CCC[C@@H]2C(=O)O[C@@H]1C	0.81	n/a
CC(=O)N1CCC[C@@H]1C(=O)N(C)[C@@H](CC(C)C)C(=O)N[C@@H]1C(=O)N[C@@H](CC(C)C)C(=O)N(C)[C@@H](CC(C)C)C(=O)N[C@H](CC(C)C)C(=O)N[C@H](C)C(=O)N[C@@H](CC(C)C)C(=O)N2CCC[C@@H]2C(=O)O[C@@H]1C	4.6	n/a
CC(=O)N1CCC[C@H]1C(=O)N(C)[C@@H](CC(C)C)C(=O)N[C@@H]1C(=O)N[C@H](CC(C)C)C(=O)N[C@H](CC(C)C)C(=O)N(C)[C@@H](CC(C)C)C(=O)N[C@@H](C)C(=O)N[C@@H](CC(C)C)C(=O)N2CCC[C@H]2C(=O)O[C@@H]1C	0.81	n/a
CC(=O)N1CCC[C@H]1C(=O)N(C)[C@H](CC(C)C)C(=O)N[C@@H]1C(=O)N(C)[C@H](CC(C)C)C(=O)N[C@H](CC(C)C)C(=O)N(C)[C@@H](CC(C)C)C(=O)N(C)[C@@H](C)C(=O)N[C@@H](CC(C)C)C(=O)N2CCC[C@@H]2C(=O)O[C@@H]1C	4.3	n/a
CC(=O)N1CCC[C@@H]1C(=O)N(C)[C@@H](CC(C)C)C(=O)N[C@@H]1C(=O)N[C@@H](CC(C)C)C(=O)N(C)[C@H](CC(C)C)C(=O)N[C@@H](CC(C)C)C(=O)N[C@@H](C)C(=O)N[C@H](CC(C)C)C(=O)N2CCC[C@H]2C(=O)O[C@@H]1C	0.44	n/a
CC(=O)N1CCC[C@H]1C(=O)N(C)[C@@H](CC(C)C)C(=O)N[C@@H]1C(=O)N(C)[C@@H](CC(C)C)C(=O)N(C)[C@H](CC(C)C)C(=O)N[C@@H](CC(C)C)C(=O)N[C@@H](C)C(=O)N[C@@H](CC(C)C)C(=O)N2CCC[C@@H]2C(=O)O[C@@H]1C	0.16	n/a
CC(=O)N1CCC[C@@H]1C(=O)N(C)[C@@H](CC(C)C)C(=O)N[C@@H]1C(=O)N(C)[C@@H](CC(C)C)C(=O)N(C)[C@@H](CC(C)C)C(=O)N[C@@H](CC(C)C)C(=O)N(C)[C@H](C)C(=O)N[C@H](CC(C)C)C(=O)N2CCC[C@@H]2C(=O)O[C@@H]1C	4.6	n/a
CC(=O)N1CCC[C@H]1C(=O)N(C)[C@H](CC(C)C)C(=O)N[C@@H]1C(=O)N[C@@H](CC(C)C)C(=O)N(C)[C@H](CC(C)C)C(=O)N(C)[C@H](CC(C)C)C(=O)N(C)[C@H](C)C(=O)N[C@@H](CC(C)C)C(=O)N2CCC[C@@H]2C(=O)O[C@@H]1C	2.6	n/a
CC(=O)N1CCC[C@H]1C(=O)N(C)[C@@H](CC(C)C)C(=O)N[C@@H]1C(=O)N(C)[C@@H](CC(C)C)C(=O)N(C)[C@H](CC(C)C)C(=O)N[C@@H](CC(C)C)C(=O)N[C@@H](C)C(=O)N[C@@H](CC(C)C)C(=O)N2CCC[C@H]2C(=O)O[C@@H]1C	0.95	n/a
CC(=O)N1CCC[C@@H]1C(=O)N(C)[C@@H](CC(C)C)C(=O)N[C@@H]1C(=O)N(C)[C@@H](CC(C)C)C(=O)N(C)[C@@H](CC(C)C)C(=O)N(C)[C@@H](CC(C)C)C(=O)N[C@@H](C)C(=O)N[C@@H](CC(C)C)C(=O)N2CCC[C@@H]2C(=O)O[C@@H]1C	2.8	n/a

Extract of 2 entries:

compound	PAMPA (10^-6 cm/s)	MDCK (10^-6 cm/s)
CC(=O)N1CCC[C@H]1C(=O)N(C)[C@H](CC(C)C)C(=O)N[C@@H]1C(=O)N[C@@H](CC(C)C)C(=O)N(C)[C@H](CC(C)C)C(=O)N(C)[C@@H](CC(C)C)C(=O)N(C)[C@@H](C)C(=O)N[C@@H](CC(C)C)C(=O)N2CCC[C@H]2C(=O)O[C@@H]1C	4	n/a
CC(=O)N1CCC[C@@H]1C(=O)N(C)[C@@H](CC(C)C)C(=O)N[C@@H]1C(=O)N(C)[C@@H](CC(C)C)C(=O)N(C)[C@@H](CC(C)C)C(=O)N[C@@H](CC(C)C)C(=O)N(C)[C@H](C)C(=O)N[C@H](CC(C)C)C(=O)N2CCC[C@@H]2C(=O)O[C@@H]1C	4.6	n/a